The text below walks through data of patent publication US20240115729A1, “COMPOSITIONS AND METHODS FOR TARGETED ANTIFIBROTIC THERAPY IN CHRONIC PANCREATITIS” (University of Virginia Patent Foundation, priority 2021, published 2024).

In the assay the target is α-smooth muscle actin (α-SMA) (mouse) (UniProt P62737). The assay is described as follows: IF colocalization (JACoP) of VT680 phage with marker, CP mouse pancreas sections.

With “SLTNSSF (SEQ ID NO: 27) phage clone (peptide)”, the mean Manders' correlation coefficient (MCC), fraction of phage overlapping cell marker turned out to be 0.06.
